Our source for the activity coefficient values is the NIST ThermoML archive (doi:10.1016/j.fluid.2006.07.015).

A short description of the series: activity coefficient (dimensionless); of the first substance listed, at infinite dilution; xn = mol fraction of the nth substance listed. The conditions noted are these: 101 kPa, Liquid, Chromatography, x1 = 0.

Numbers after ± are expanded uncertainties.

Take `c1ccc2cccc-2cc1` [bicyclo[5.3.0]deca-2,4,6,8,10-pentaene] + CCCCCCCCCCCCCCCCCCC(CCCCCCCCCCCCCCCCCC)CCCCC(CCCCCCCCCCCCCCCCCC)CCCCCCCCCCCCCCCCCC: the activity coefficient reads like this: (373.15 K) 0.568 ± 0.031; (388.15 K) 0.528 ± 0.032; (403.15 K) 0.498 ± 0.033; (418.15 K) 0.472 ± 0.033; (433.15 K) 0.475 ± 0.033.
